The experiment has as its target T1, Nitric oxide synthase, inducible (Mus musculus, UniProt P29477).
T1 sequence (P29477 whole entry): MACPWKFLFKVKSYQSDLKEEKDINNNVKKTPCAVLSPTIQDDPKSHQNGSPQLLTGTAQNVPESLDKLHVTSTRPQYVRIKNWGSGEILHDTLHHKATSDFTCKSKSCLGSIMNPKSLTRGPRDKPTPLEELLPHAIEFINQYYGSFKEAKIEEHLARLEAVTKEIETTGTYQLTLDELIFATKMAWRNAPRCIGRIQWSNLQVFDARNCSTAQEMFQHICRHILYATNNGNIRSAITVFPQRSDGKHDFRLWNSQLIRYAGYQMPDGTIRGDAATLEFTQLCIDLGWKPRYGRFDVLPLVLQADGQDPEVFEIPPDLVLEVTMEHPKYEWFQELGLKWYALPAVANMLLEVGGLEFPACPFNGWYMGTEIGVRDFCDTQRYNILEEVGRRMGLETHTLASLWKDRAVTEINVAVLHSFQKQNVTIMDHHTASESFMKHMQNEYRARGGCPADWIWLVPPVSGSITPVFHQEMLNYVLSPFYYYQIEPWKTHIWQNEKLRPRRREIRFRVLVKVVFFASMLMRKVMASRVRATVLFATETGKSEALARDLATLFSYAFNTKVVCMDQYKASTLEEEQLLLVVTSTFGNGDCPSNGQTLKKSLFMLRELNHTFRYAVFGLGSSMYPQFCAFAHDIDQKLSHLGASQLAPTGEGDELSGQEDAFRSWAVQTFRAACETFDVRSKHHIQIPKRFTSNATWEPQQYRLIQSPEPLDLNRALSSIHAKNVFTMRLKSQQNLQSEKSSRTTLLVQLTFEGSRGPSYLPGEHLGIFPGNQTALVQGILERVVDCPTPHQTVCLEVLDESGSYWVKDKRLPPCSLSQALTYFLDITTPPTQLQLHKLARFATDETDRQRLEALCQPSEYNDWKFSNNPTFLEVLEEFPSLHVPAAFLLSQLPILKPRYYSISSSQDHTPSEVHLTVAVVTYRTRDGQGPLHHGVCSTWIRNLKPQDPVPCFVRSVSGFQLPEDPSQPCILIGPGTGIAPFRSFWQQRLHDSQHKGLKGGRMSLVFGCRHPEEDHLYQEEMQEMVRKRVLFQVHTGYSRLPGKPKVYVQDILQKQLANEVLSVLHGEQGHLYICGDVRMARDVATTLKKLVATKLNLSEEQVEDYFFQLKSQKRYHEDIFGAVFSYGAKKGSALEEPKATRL
Put plainly: Compound was tested for its inhibitory activity against macrophage NO2- synthesis.

A word on the IC50: it is the point on the concentration scale where inhibition reaches its midpoint. Higher therefore signals lower potency. The compound `COC(=O)[C@@H](N)CCCNC(=N)N[N+](=O)[O-]` [L-NAME] came in with an IC50 of 2600 nM. This counts as single-digit micromolar.

The values above are taken from ChEMBL document CHEMBL1127552, “Approaches toward selective inhibition of nitric oxide synthase” (J Med Chem, 1994).
